Measured affinities in a library of Ab-91 heavy chain variants

The target is the same throughout: PDVDLGDISGINAS, from the HR2 region of SARS-CoV-2 spike.

Ab-91 is the parent antibody, in scFv form: VL, then the linker GGGGSGGGGSGGGGS, then VH. The light chain is unchanged in all variants.
VL: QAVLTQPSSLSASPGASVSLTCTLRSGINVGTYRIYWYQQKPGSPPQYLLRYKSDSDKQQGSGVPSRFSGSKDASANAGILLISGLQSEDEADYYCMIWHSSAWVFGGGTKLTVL
VH: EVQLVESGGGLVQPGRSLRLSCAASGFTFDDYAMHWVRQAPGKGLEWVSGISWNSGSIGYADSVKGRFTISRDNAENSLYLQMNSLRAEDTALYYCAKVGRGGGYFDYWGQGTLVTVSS

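In library AAYL51, one, two or three CDR residues were substituted; doubles and triples were drawn at random. In AlphaSeq, yeast of one mating type display the scFv and yeast of the other type display the target. Binding brings cells together so that they mate, and sequencing counts the barcode pairs among the diploids. The ratio of observed to expected reads was calibrated, replicate by replicate, on BCL2-family standards whose Kd was known from biolayer interferometry. Mating was done three times.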

Variants are written as CDR1, CDR2 and CDR3 of the heavy chain (limits as in the source). Parent: GFTFDDYAMH, GISWNSGSIGYADSVK, VGRGGGYFDY. This list gathers variants with a substitution at Y32 (VH, numbered from residue 1). Affinities are written as log10 Kd with Kd in nM; a lower number is a better binder. Averages over replicates are reported, and they cover detected replicates only. A pair that was not seen in any replicate is written "nd"; this usually means weak binding, but a binder can also be missed. Order: sorted from the lowest average up, undetected variants last.

For GFTFDDMAMH / GISWNSGSIGYADSVK / VGRGGGYFVY, the assay gave 1.41 (3 of 3 replicates; controls 5 of 9).
For GFTFDDNAMH / GISWNSGSIGYADSVK / VGREGGYWDY, the assay gave 3.18 (3 of 3 replicates; controls 8 of 9).
For GFTFDVIAMH / GISNNSGSIGYADSVK / VGRGGGYFDY, the assay gave 3.48 (1 of 3 replicates; controls 2 of 9).
For GFTHDDQMMH / GISWNSGSIGYADSVK / VGRGGGYFDY, the assay gave 3.66 (1 of 3 replicates; controls 0 of 9).
For GFTFDDWADH / GISWNSGSIGYADSVK / VGRGGGYFDY, the assay gave 3.89 (1 of 3 replicates; controls 1 of 9).
For GFTFDDNAMH / GISWNSGSIGYADSVV / VGRGGAYFDY, the assay gave 4.06 (1 of 3 replicates; controls 0 of 9).
For GFTFDDEAMH / GISWMSGSKGYADSVK / VGRGGGYFDY, the assay gave 4.06 (1 of 3 replicates; controls 1 of 9).
For GFTFDDLAMH / GISINSGSIGYADSVK / AGRGGGYFDY, the assay gave 4.10 (1 of 3 replicates; controls 2 of 9).
For NFTFDDDAVH / GISWNSGSIGYADSVK / VGRGGGYFDY, the assay gave 4.23 (2 of 3 replicates; controls 6 of 9).
For GFTFDDGAMH / GISWNSGSIGYADCVK / VGRGGGHFDY, the assay gave 4.28 (1 of 3 replicates; controls 3 of 9).
For GFTFDDIAMH / GISWNSGSIGYADSVK / VGRGGGYFIT, the assay gave 4.43 (3 of 3 replicates; controls 3 of 9).
For GFTDDDPAMH / IISWNSGSIGYADSVK / VGRGGGYFDY, the assay gave 4.43 (2 of 3 replicates; controls 3 of 9).
For GFTFDDVAMH / GISWNSFSIGYADSVW / VGRGGGYFDY, the assay gave 4.53 (3 of 3 replicates; controls 4 of 9).
For GFTFDDNAMH / GISWNSGSIGYADSVK / VGRGAGYFDY, the assay gave 4.55 (1 of 3 replicates; controls 3 of 9).
For GFTFDDPAMH / GISWNSGSIVYADSYK / VGRGGGYFDY, the assay gave 4.64 (1 of 3 replicates; controls 4 of 9).
For GFTSDDLAMH / GIWWNSGSIGYADSVK / VGRGGGYFDY, the assay gave 4.67 (1 of 3 replicates; controls 3 of 9).
For GFTFDDIAMH / GISWNSGMIGYAESVK / VGRGGGYFDY, the assay gave 4.68 (3 of 3 replicates; controls 9 of 9).
For GFTFDDRCMH / GISWNSGSIGYADSVK / VGRGGGYFDY, the assay gave 4.69 (2 of 3 replicates; controls 2 of 9).
For GFTFDFAAMH / GISWNSGSIGYADSVF / VGRGGGYFDY, the assay gave 4.69 (1 of 3 replicates; controls 0 of 9).
For GFTFDDSAMH / GISWNSGSIGYADSVK / VGRGGGYFDY, the assay gave 4.82 (1 of 3 replicates; controls 0 of 9).
For GFTFDDEAMH / GIKWNSGSIGYVDSVK / VGRGGGYFDY, the assay gave 5.19 (2 of 3 replicates; controls 4 of 9).
For GFTFDPHAMH / GISWNSGSIGYADSVK / VGRGGGYFWY, the assay gave 5.28 (2 of 3 replicates; controls 6 of 9).
For GFTFDDLAMH / GIFWNSGSIGYALSVK / VGRGGGYFDY, the assay gave 5.37 (2 of 3 replicates; controls 8 of 9).
For GFTFDDCAMH / GISWNSGSIGYADSVR / VGRGGGYFLY, the assay gave 5.39 (1 of 3 replicates; controls 2 of 9).
For GFHFDNFAMH / GISWNSGSIGYADSVK / VGRGGGYFDY, the assay gave 5.60 (1 of 3 replicates; controls 5 of 9).
For GFTFDWVAMH / GISWNSGSIGYADSVK / SGRGGGYFDY, the assay gave 6.25 (1 of 3 replicates; controls 1 of 9).
For GFTFDDKAMH / GISWNSGSIGYADSRK / VGRGGGYQDY, the assay gave nd (0 of 3 replicates; controls 1 of 9).
For GFTFDDIAMH / GIAWNSGSIGYADSVK / VGRGGGYFDY, the assay gave nd (0 of 3 replicates; controls 0 of 9).
For GDTFDDPAMH / GISWGSGSIGYADSVK / VGRGGGYFDY, the assay gave nd (0 of 3 replicates; controls 1 of 9).
For GFTFDDTAMQ / GIKWNSGSIGYADSVK / VGRGGGYFDY, the assay gave nd (0 of 3 replicates; controls 2 of 9).
For GFTFDDVAMH / GISWNSGSIGYADSAK / VGRGGGYFDF, the assay gave nd (0 of 3 replicates; controls 1 of 9).
For GFTFDDEAMH / IISWNSGSIGYADSVK / VGRFGGYFDY, the assay gave nd (0 of 3 replicates; controls 0 of 9).
For GFTFDDTAMT / GISWNSGSCGYADSVK / VGRGGGYFDY, the assay gave nd (0 of 3 replicates; controls 0 of 9).
For GFTFDDPAMH / GISWNSGSIGYADSVK / VGRGGGYFDY, the assay gave nd (0 of 3 replicates; controls 0 of 9).
For GFTFDDSAMH / GISWNSGSIGLADSVK / VGPGGGYFDY, the assay gave nd (0 of 3 replicates; controls 0 of 9).
For GFTFDDNAMH / GISWNLGSIGYADSVK / VGRGGGYFDY, the assay gave nd (0 of 3 replicates; controls 0 of 9).
For GFTFDDWAMH / GISWCSGSIGYADSVK / VYRGGGYFDY, the assay gave nd (0 of 3 replicates; controls 0 of 9).
For GFTFDDTAMH / GVSWNRGSIGYADSVK / VGRGGGYFDY, the assay gave nd (0 of 3 replicates; controls 2 of 9).
For GFTFDDHASH / GISGNSGSIGYADSVK / VGRGGGYFDY, the assay gave nd (0 of 3 replicates; controls 2 of 9).
For GLTFDDVAMH / GISWISGSIGYADSVK / VGRGGGYFDY, the assay gave nd (0 of 3 replicates; controls 0 of 9).
For GFTFDPQAMH / GISWNSGSIGYADSVK / VGRGGGYFDY, the assay gave nd (0 of 3 replicates; controls 1 of 9).
For GFTFDDCASH / GISWNSGSIGYPDSVK / VGRGGGYFDY, the assay gave nd (0 of 3 replicates; controls 0 of 9).
For GQTFDDFAMH / GISWNSGSIGYADSVK / VGYGGGYFDY, the assay gave nd (0 of 3 replicates; controls 0 of 9).
For GFTFDDQAEH / GISWNSGSIGYADSLK / VGRGGGYFDY, the assay gave nd (0 of 3 replicates; controls 3 of 9).

Repeated from above, the 4 best binders with a signal in all replicates:

For GFTFDDMAMH / GISWNSGSIGYADSVK / VGRGGGYFVY, the assay gave 1.41 (3 of 3 replicates; controls 5 of 9).
For GFTFDDNAMH / GISWNSGSIGYADSVK / VGREGGYWDY, the assay gave 3.18 (3 of 3 replicates; controls 8 of 9).
For GFTFDDIAMH / GISWNSGSIGYADSVK / VGRGGGYFIT, the assay gave 4.43 (3 of 3 replicates; controls 3 of 9).
For GFTFDDVAMH / GISWNSFSIGYADSVW / VGRGGGYFDY, the assay gave 4.53 (3 of 3 replicates; controls 4 of 9).

Empty control strains, which show no peptide, gave a signal in 21% of pairings with library AAYL51; the median was 4.54 and 95% of these signals were weaker than 3.26. No background was subtracted. For each scFv, signals with the empty controls are counted beside the result. In this assay the parent's reference entry averaged 1.86; its copy inside this library read 0.88.

The measurements come from Engelhart et al. 2022 (doi:10.1038/s41597-022-01779-4) through the FLAb antibody collection.